# Experimental data published in ChEMBL document CHEMBL1128741, “Synthesis and biological evaluation of 5-fluoro-2'-deoxyuridine phosphoramidate analogs” (J Med Chem, 1995).
# Tested on: B16
# Assay: In vitro cytotoxicity (LC99) was measured against B16 Melanoma cells
# Format: cell-based
# Details: mouse
# Summary of the method: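 B16 melanoma cells in exponential growth, (2–3) × 10⁶ in 10 mL serum-free MEM, exposed to drug for 2 h, then washed and resuspended in MEM + 10% FBS. Plated at 50–50 000 cells/plate, grown 8 d at 37 °C. Colonies stained with crystal violet and counted. LC99 (2-log drop in colony formation) taken from log-linear part of log surviving fraction vs concentration.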
structure (smiles),measurement,value
O=P1(N(CCCl)CCCl)NCC(O)CO1 (stereo unspecified),LC99,12 µM
